Laboratory results: publication PMC4987166 (Clinical cancer research : an official journal of the …, 2016)
Marks after values point to notes of the source that are not given here.

Protein sequences, listed by entry. Tags and fused reporters are not part of them. Lines headed by an entry give the natural chain unless they say otherwise; changes in a name come on top.
UniProt Q01543: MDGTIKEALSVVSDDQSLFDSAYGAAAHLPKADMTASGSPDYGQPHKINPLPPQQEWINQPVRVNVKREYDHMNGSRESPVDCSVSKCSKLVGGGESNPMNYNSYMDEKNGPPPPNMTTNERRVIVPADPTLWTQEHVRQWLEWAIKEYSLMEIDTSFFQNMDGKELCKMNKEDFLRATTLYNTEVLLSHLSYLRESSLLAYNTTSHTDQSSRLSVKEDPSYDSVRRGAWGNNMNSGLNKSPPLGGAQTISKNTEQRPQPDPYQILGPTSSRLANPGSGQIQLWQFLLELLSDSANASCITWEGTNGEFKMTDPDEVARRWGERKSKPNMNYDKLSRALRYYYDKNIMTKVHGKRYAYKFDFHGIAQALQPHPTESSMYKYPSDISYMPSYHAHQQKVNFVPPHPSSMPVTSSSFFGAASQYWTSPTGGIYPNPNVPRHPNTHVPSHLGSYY

Tests used:
[1] = target: T1, EWS-FLI1 transcription factor (Homo sapiens, UniProt Q01543+Q01844); test: NR0B1 luciferase reporter assay of EWS-FLI1 activity in TC32 cells; format: cell-based; details: read-out: IC50 of suppression of EWS-FLI1 activity; TC32 cells with NR0B1 luciferase reporter, 12 h
T1 sequence (Q01844+Q01543 with tags, fused parts or gaps): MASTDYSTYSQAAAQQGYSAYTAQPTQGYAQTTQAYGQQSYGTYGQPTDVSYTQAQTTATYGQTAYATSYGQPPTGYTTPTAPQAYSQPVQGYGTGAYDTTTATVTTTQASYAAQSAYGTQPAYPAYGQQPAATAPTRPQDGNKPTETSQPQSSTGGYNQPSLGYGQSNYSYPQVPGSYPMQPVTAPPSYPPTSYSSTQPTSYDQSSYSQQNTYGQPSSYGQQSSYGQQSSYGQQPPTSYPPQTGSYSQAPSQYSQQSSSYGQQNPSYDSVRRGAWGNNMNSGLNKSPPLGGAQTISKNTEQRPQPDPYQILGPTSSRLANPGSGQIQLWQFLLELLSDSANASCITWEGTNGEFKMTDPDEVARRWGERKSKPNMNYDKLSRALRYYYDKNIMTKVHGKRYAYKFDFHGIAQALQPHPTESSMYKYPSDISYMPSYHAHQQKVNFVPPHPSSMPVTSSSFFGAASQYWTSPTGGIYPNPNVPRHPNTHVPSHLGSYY

rat = test: Rat toxicity: liver enzymes, liver synthetic function, hematopoiesis; format: in vivo; details: 0.8 mg/kg intravenously
[2] = Serum drug levels in mice; format: in vivo
HepG2 cells = test: Time-lapse microscopy of HepG2 proliferation; format: cell-based; details: 50 nmol/L mithramycin, 50 nmol/L EC-8042 or 7.5 nmol/L EC-8105
γH2AX phosphorylation = test: DNA damage by phosphorylation of γH2AX; format: cell-based; details: 50 nmol/L mithramycin, 50 nmol/L EC-8042 or 7.5 nmol/L EC-8105
CD-1 mice = details: mouse, ref DTP website at the NCI; cited from earlier work
[3] = Phase I/II trial, limited by liver toxicity; ref manuscript in preparation; cited from earlier work

mithramycin
IC50 [1]: 17 nM | circulating ALT (rat): 46.99 U/L | circulating AST (rat): 149.20 U/L | serum levels of drug ([2]; mice, at the MTD): 385 nM | serum levels of drug in the mouse ([2]; mouse, determined in this study): over 300 nmol/L | proliferation of HepG2 cells (HepG2 cells): impaired their proliferation to a comparable extent | DNA damage as measured by phosphorylation of γH2AX (γH2AX phosphorylation): significant DNA damage | Intraperitoneal MTD (CD-1 mice): 1.5 ^a mg/kg | serum concentrations of the drug in patients [3]: 17 nM
